# Biological target: T1, HDAC10 (Homo sapiens, UniProt Q969S8)
# T1 sequence (Q969S8 1-669): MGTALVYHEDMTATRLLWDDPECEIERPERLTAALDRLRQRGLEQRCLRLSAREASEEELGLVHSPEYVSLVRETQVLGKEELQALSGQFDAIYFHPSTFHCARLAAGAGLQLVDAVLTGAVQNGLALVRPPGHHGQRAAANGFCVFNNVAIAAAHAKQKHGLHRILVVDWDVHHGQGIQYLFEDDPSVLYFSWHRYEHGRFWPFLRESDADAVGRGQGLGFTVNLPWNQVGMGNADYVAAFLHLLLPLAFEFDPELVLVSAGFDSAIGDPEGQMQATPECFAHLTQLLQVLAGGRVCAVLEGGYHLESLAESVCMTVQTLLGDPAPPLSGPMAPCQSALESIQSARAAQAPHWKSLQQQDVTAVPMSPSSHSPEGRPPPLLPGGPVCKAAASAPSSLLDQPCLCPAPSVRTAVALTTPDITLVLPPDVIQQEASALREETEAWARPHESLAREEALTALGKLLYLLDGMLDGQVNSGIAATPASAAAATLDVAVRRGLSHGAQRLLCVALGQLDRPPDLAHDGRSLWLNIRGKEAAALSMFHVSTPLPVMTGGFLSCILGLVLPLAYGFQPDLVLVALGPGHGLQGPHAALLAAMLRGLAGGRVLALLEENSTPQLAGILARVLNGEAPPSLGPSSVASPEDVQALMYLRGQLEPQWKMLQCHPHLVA
# Test: Competition binding assay in cell lysate, affinity matrix, MS
# Design: used to probe endogenous HDACs in K562 whole cell extracts; endogenous in cells; host or cells: K-562
# Details: Example 3 or 4, Molt4 and K-562 cell lysates
smiles,measurement,value
CC(/C=C/C(=O)NO)=C\[C@@H](C)C(=O)c1ccc(N(C)C)cc1 [Trichostatin A],inhibition of HDAC10 (in words),no significant inhibition
